## Permeability data for macrocyclic peptides

Values of Furukawa et al. 2016, doi:10.1021/acs.jmedchem.6b01246, as listed in CycPeptMPDB.

PAMPA is the parallel artificial membrane permeability assay, which has no cells and reads passive diffusion.
Permeability is given as log10 of P in cm/s; higher (less negative) is more permeable.

* CCCC[C@@H]1NC(=O)[C@@H](CC(C)C)N(C)C(=O)CN(CC2CCCCC2)C(=O)[C@@H](Cc2ccccc2)NC(=O)CN(CCCOC(C)C)C(=O)[C@@H]2CCCN2C1=O: PAMPA -5.01 (log10 cm/s)
* CCCCCN1CC(=O)N[C@H](CC(C)C)C(=O)N[C@@H](CCCC)C(=O)N2CCC[C@H]2C(=O)N(CC)CC(=O)N[C@H](C)C1=O: PAMPA -6.71 (log10 cm/s)
* CCCCCN1CC(=O)N(C)[C@@H](CC(C)C)C(=O)N[C@@H](CCCC)C(=O)N2CCC[C@@H]2C(=O)N(CC)CC(=O)N[C@@H](C)C1=O: PAMPA -5.40 (log10 cm/s)
* CCCC[C@@H]1NC(=O)[C@H](CC(C)C)N(C)C(=O)CN(CC2CCOCC2)C(=O)[C@H](Cc2ccccc2)NC(=O)CN(CC)C(=O)[C@H]2CCCN2C1=O: PAMPA -5.18 (log10 cm/s)
* CCCC[C@@H]1NC(=O)[C@@H](CC(C)C)N(C)C(=O)CN(CC2CCOCC2)C(=O)[C@@H](C)NC(=O)CN(CCCOC(C)C)C(=O)[C@H]2CCCN2C1=O: PAMPA -6.66 (log10 cm/s)
* CCCC[C@@H]1NC(=O)[C@@H](CC(C)C)N(C)C(=O)CN(CC2CCOCC2)C(=O)[C@H](C)NC(=O)CN(CCCOC(C)C)C(=O)[C@H]2CCCN2C1=O: PAMPA -5.95 (log10 cm/s)
* CCCC[C@@H]1NC(=O)[C@@H](CC(C)C)NC(=O)CN(CC2CCCCC2)C(=O)[C@H](Cc2ccccc2)NC(=O)CN(CCCOC(C)C)C(=O)[C@@H]2CCCN2C1=O: PAMPA -5.02 (log10 cm/s)
* CCCCCN1CC(=O)N[C@@H](CC(C)C)C(=O)N[C@@H](CCCC)C(=O)N2CCC[C@@H]2C(=O)N(CC)CC(=O)N[C@@H](Cc2ccccc2)C1=O: PAMPA -5.13 (log10 cm/s)
* CCCCCN1CC(=O)N(C)[C@@H](CC(C)C)C(=O)N[C@@H](CCCC)C(=O)N2CCC[C@@H]2C(=O)N(Cc2ccc3c(c2)OCO3)CC(=O)N[C@H](Cc2ccccc2)C1=O: PAMPA -5.45 (log10 cm/s)
* CCCC[C@@H]1NC(=O)[C@H](CC(C)C)N(C)C(=O)CN(CC2CCOCC2)C(=O)[C@H](C)NC(=O)CN(CCCOC(C)C)C(=O)[C@H]2CCCN2C1=O: PAMPA -6.19 (log10 cm/s)
* CCCC[C@@H]1NC(=O)[C@@H](CC(C)C)N(C)C(=O)CN(CC2CCOCC2)C(=O)[C@@H](Cc2ccccc2)NC(=O)CN(Cc2ccc3c(c2)OCO3)C(=O)[C@H]2CCCN2C1=O: PAMPA -5.29 (log10 cm/s)
* CCCC[C@@H]1NC(=O)[C@H](CC(C)C)NC(=O)CN(CC2CCOCC2)C(=O)[C@H](C)NC(=O)CN(CCCOC(C)C)C(=O)[C@H]2CCCN2C1=O: PAMPA -7.00 (log10 cm/s)

A selection of 2 entries from above:

| SMILES | PAMPA (log10 cm/s) |
|---|---|
| CCCC[C@@H]1NC(=O)[C@@H](CC(C)C)N(C)C(=O)CN(CC2CCOCC2)C(=O)[C@@H](Cc2ccccc2)NC(=O)CN(Cc2ccc3c(c2)OCO3)C(=O)[C@H]2CCCN2C1=O | -5.29 |
| CCCC[C@@H]1NC(=O)[C@H](CC(C)C)N(C)C(=O)CN(CC2CCOCC2)C(=O)[C@H](C)NC(=O)CN(CCCOC(C)C)C(=O)[C@H]2CCCN2C1=O | -6.19 |

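Conditions beyond the assay type are not listed; see the original paper. Other peptides of the study may be missing here. Peptides that the database sets to -10, its floor, are left out.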